Literature values in patent publication US11266707B2, “Nutraceuticals for the prevention, inhibition, and treatment of SARS-CoV-2 and associated COVID-19” (priority 2020, dated 2022).

How the values were obtained:
LPS-induced ARDS = conditions: 10 mg/kg ip; cited from earlier work
[1] = 50 and 100 mg/kg/day, compared with the MD group; cited from earlier work
[2] = test system: lipopolysaccharide-activated macrophages; conditions: 5 and 10 microM for 6-24 hr, versus macrophages without EGCG; cited from earlier work

## Epigallocatechin-3-Gallate [EGCG]
LPS-induced ARDS
  wet-to-dry weight ratios: reduced
[1]
  disease activity index (DAI): decreased
  spleen index (SI): decreased
[2]
  iNOS activity in soluble extracts: significantly lower
